Legend:
Assay in all cases: Phosphoprotein kinetic profiles in CD34+, CD117+ cells of AML bone marrow samples
Type in all cases: cell-based, human
Settings in all cases: AML1 sample (Example 6)
pS6 = tested on: pS6
Protocol: (§1) To assess the signal transduction response after growth factor simulation, 100 to 200 μL of processed samples including about 2×10^6 WBC/100 μL were added to tubes and incubated at 37° C. for 30 minutes. For inhibition experiments, cells were incubated with 100 μM U0126, 1 μg/mL rapamycin, or both for at least 20 minutes prior to cytokine addition and in all cases for 30 min prior to formaldehyde addition. After this pre-incubation period, tubes were incubated at 0, 1, 2, 4, 6, 8, 10, 15, 20, 25, 30, and 60 minutes with one of the following cytokines to stimulate protein phosphorylation: 100 ng/mL SCF, 25 ng/mL FL, 25 ng/mL GM-CSF, or 25 ng/mL IL-3. After stimulation the cells were immediately fixed by the addition of formaldehyde to a final concentration of 4% v/v and incubated for 10 minutes at room temperature. Following fixation, red blood cells were lysed by the addition of TRITON-X/PBS solution (0.1% v/v final concentration Triton X-100) supplemented with a 1 x phosphatase inhibitor cocktail (PIC; final concentrations: 0.2 mM sodium orthovanadate, 2 mM sodium pyrophosphate decahydrate, 2 mM [3-glycerophosphate, and 10 mM sodium fluoride) and incubation at 37° C. for 20 minutes. The incubated solution was chilled by the addition of ice-cold Wash Buffer (final concentration 1×PBS and either 4% bovine serum albumin (BSA) or 4% heat-inactivated fetal bovine serum (FBS), supplemented with 1×PIC), and the samples were centrifuged at 300 g for 6 minutes at 4° C.). If the lysis was incomplete, samples were retreated with 0.1% Triton X-100 at 37° C. for 10 to 20 minutes. After removal of the supernatant, cells were washed twice in ice-cold Wash Buffer supplemented with 1×PIC and permeabilized by the addition of pre-chilled 80% methanol while simultaneously vortexing the tube and incubated on ice for 10 minutes. Methanol was removed by centrifugation, the pellet was washed with ice-cold 1×PBS, and non-specific binding was blocked by the addition of ice-cold Wash Buffer supplemented with 1×PIC and incubation at 4° C. for a minimum of 30 minutes.
(§2) To stain cells with fluorescent conjugated monoclonal antibodies, the incubated solution was centrifuged to remove the supernatant and the pellet was incubated for 60 minutes at 4° C. with an antibody staining solution including 0.25 μg to 0.50 μg of pS6-Pacific Blue, pERK-ALEXA 488, pSTAT5-ALEXA 647, CD34-PE, CD45-PerCP, and CD117-PC7. Samples were washed three times with ice-cold Wash Buffer supplemented with 1×PIC, resuspended in 0.5 mL ice-cold Wash Buffer supplemented with 1×PIC including 0.5 μg/mL DAPI, and analyzed by flow cytometryusing a BD LSR II Flow Cytometer, equipped with a High Throughput Sampler (HTS).
(§3) First, doublets, aggregates, and debris were excluded by gating on single cell events in the SSC-Area versus SSC-Height histogram. Then, in events passing through this gate, debris near the origin of the FSC-Area versus SSC-Area plot (gray in FIG. 4A) was excluded by drawing a gate around an area encompassing, primarily, lymphocytes, monocytes, and granulocytes (LMG, black in FIG. 4A). Next, in cells passing through the LMG gate, the blast region (circle in FIG. 4B) was identified in the CD45 versus SSC-Area histogram (FIG. 4B). From this blast population, CD34+, CD117+ cells were identified in the CD34 versus CD117 plot (boxed area in FIG. 4C). Finally, these cells were further analyzed for cytokine-mediated increases in phosphorylation by constructing gates in the single parameter histograms (for positively and negatively stained events, i.e., for the phosphorylated and non-phosphorylated forms, respectively, of each protein) for pS6 (FIGS. 4D and 4G), pERK (FIGS. 4E and 4H), and pSTAT5 (FIGS. 4F and 4I). The single parameter histograms show the responses typically obtained for SCF-stimulated pS6 (4 min; FIG. 4D), pERK (2 min; FIG. 4E), and pSTAT5 (2 min; FIG. 4F) as well as for IL-3 stimulated pS6 (FIG. 4G), pERK (FIG. 4H), and pSTAT5 (FIG. 41) at 8 min. […]

pERK = tested on: pERK
Protocol: as §1, §2, §3

pSTAT5 = tested on: pSTAT5
Protocol: as §1, §2, §3

B1: Interleukin- 3 (protein, UniProt P08700 20-152, looked up)
Interleukin-3: APMTQTTPLKTSWVNCSNMIDEIITHLKQPPLPLLDFNNLNGEDQDILMENNLRRPNLEAFNRAVKSLQNASAIESILKNLLPCLPLATAAPTRHPIHIKDGDWNEFRRKLTFYLKTLENAQAQQTTLSLAIF
notes: colony-stimulating cytokine
pS6
  pS6 Amp (peak amplitude of fold stimulation): 1
  pS6 RI (response interval): 20 min
pERK
  pERK Amp (peak amplitude of fold stimulation): 5
  pERK RI (response interval): 10 min
pSTAT5
  pSTAT5 Amp (peak amplitude of fold stimulation): 150
  pSTAT5 RI (response interval): >60 min

From US20130210034A1, “COMPLEX PHOSPHOPROTEIN ACTIVATION PROFILES” (BECKMAN COULTER, INC., priority 2005, published 2013)
